# From patent US20260272868A1 (priority 2022, published 2026)
# How the values were obtained:
# [1] = test system: head twitch response (HTR); format: in vivo, mice; conditions: higher doses of trazodone
# Method: Male C57BL/6 mice (~7-9 weeks old) were used in these studies. Mice were housed 2 per cage under standard temperature- and humidity-controlled laboratory conditions with a 12-hour light/dark cycle. Mice had free access to food and water.
# Both compounds were dissolved in saline vehicle at a dose volume of 10 mL/kg. Doses were corrected for salt form so that the dose administered represented free base.
# Mice were randomly assigned to 1 of 6 treatment groups consisting of 2 subcutaneous injections (see Table 1), which were administered according to the schedule in FIG. 1. […] Behavior was videotaped by a camera (GoPro Hero 9) mounted above the testing chambers. Recorded video was uploaded for analysis of head twitch behavior. Number of head twitch responses (HTRs) was recorded for each animal for each 2-min bin. For each treatment group, the mean number of HTRs in each 2- or 10-min bin, and across the whole 30-min recording period, were analyzed.
# [2] = test system: hallucinogenic effects of a 5-HT2A receptor agonist; assay: Extrapolated human MEC, MED and onset for reversal of hallucinogenic effects of a 5-HT2A receptor agonist; conditions: for minimum efficacious dose (MED): human
compound,measurement,setting,value
O=c1n(CCCN2CCN(c3cccc(Cl)c3)CC2)nc2ccccn12 [trazodone],HTR relative to baseline of vehicle pre-treated animals,[1],suppressed HTR below the baseline level
same,time to peak reversal effect,"[2]; intranasal and intramuscular routes, contemplated",15 to 20 min
same,time of peak reversal effect,[2]; intravenous bolus,< 5 min
same,minimum efficacious dose (MED),"[2]; intravenous route, estimated",< 12 mg
same,minimum efficacious dose (MED),"[2]; oral route, estimated",-12 mg
same,time of peak reversal effect,"[2]; oral trazodone, estimated, corresponding to Tmax",60 to 120 min
